Source: ChEMBL document CHEMBL1123442 (J Med Chem, 1986)

Test system: Calf thymus DNA
Experiment: Binding constant (log K) for DNA binding by ethidium bromide displacement
Format: nucleic-acid assay
Conditions: Bos taurus

`CNc1cc(NS(C)(=O)=O)ccc1Nc1c2ccccc2nc2ccccc12` was tested, and the Log K was 6.42.
